Source: US20070154579A1, “Morinda Citrifolia Based Formulation And Methods For Weight Management” (priority 2005, published 2007)
Where two headings read alike, the source gives them in different places.

Amino acid sequences for entries named in this document (tags omitted). A change or cut given only in a name is not applied to a line headed by its entry.
UniProt P28336: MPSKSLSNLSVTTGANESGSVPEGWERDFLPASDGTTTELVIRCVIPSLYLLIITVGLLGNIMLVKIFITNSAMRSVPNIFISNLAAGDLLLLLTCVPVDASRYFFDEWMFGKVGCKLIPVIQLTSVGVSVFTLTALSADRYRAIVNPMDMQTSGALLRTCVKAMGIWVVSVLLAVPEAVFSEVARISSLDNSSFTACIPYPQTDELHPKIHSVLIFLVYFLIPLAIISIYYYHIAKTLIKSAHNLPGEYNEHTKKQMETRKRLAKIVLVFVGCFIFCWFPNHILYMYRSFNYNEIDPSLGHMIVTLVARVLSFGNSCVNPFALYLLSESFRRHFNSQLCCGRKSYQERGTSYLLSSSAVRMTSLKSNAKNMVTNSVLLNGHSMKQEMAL

How the values were obtained:
Bombesin BB1 [1] = target: T1, Bombesin BB1 (Homo sapiens, UniProt P28336); details: historical value, cited from earlier work
Bombesin BB1 [2] = target: T1, Bombesin BB1; assay: Bombesin BB1 radioligand binding; set-up: expressed in transfected cells; host or cells: CHO cells; details: read-out: Concurrent IC50 (reference compound); batch 147475
Excerpt: The percentage of concentration represents the concentration strength of the particular concentrate tested; that is, the strength of concentration relative to the Morinda citrifolia fruit juice from which the concentrate was obtained. […] The following materials and methods were utilized in the Bombesin research. [table]

In the case of Neuromedin B, the IC50 (Bombesin BB1 [1]; read-out: Historical IC50 (reference compound)) is listed as 0.017 nM, the Ki (Bombesin BB1 [1]; read-out: Historical Ki (reference compound)) is listed as 0.0081 nM and the IC50 (Bombesin BB1 [2]) is listed as 0.0206 nM.
